Literature values in patent US20100135992A1, “Prolongation of Survival of an Allograft by Inhibiting Complement Activity” (Alexion Pharmaceuticals, Inc., priority 2006, published 2010).

System: terminal complement activity
Conditions: cited from earlier work
[1] = PNH patients, 900 mg/patient once every 12-14 days

## eculizumab: whole anti-human complement C5 monoclonal antibody that prevents C5 cleavage
PNH patients, 900 mg dose
  duration of block of the effects of complement: approximately two weeks
[1]
  symptoms of PNH: greatly inhibited
  terminal complement activity: completely and consistently block
Intravenous administration to humans in a study of PNH
  ill effects: without ill effects
